Laboratory results reported in patent EP2128158A1, “Heterocyclic cyclopropyl-substituted FXR binding compounds” (Phenex Pharmaceuticals AG, priority 2008, dated 2009).

The chains behind the UniProt entries cited, without tags or fusion partners. Where a name states a change or a piece, a line headed by the entry shows the natural chain unless it says otherwise.
UniProt Q96RI1: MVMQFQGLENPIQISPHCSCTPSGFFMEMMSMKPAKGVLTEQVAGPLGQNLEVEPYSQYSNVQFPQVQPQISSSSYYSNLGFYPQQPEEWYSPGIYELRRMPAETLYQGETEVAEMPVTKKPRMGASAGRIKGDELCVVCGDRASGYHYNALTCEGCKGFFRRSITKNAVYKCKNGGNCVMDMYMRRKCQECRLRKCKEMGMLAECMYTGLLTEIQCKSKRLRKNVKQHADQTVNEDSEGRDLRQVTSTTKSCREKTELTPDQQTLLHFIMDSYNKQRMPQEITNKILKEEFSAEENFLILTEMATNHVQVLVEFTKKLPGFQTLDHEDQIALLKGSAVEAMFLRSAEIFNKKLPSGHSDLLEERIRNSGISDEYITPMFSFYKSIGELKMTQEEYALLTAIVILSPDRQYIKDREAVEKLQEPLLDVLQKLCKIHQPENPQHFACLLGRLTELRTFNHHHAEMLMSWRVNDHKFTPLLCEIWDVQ

Molecular target: T1, full length human FXR (Homo sapiens, UniProt Q96RI1)
T1 construct: The full length human FXR (NM_005123) was cloned into pTRexDest30; expressed in transfected cells
T1 sequence (Q96RI1 1-472 isoform Q96RI1-2): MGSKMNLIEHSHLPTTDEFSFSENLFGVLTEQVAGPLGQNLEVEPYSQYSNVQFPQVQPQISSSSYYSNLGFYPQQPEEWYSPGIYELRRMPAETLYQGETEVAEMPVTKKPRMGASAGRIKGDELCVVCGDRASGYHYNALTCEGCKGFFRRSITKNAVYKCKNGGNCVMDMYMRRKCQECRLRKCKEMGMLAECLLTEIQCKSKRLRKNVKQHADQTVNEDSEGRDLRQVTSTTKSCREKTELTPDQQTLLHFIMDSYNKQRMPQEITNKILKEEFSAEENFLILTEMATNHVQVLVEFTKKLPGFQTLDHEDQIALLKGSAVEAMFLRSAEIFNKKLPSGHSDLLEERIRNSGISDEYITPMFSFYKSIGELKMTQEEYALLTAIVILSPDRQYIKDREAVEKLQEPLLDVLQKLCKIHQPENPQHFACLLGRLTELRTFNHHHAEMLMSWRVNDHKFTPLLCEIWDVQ
Test: Direct reporter (DR) gene assay in stably transfected HEK293 cells (D2IV3), luciferase
Assay type: cell-based
Settings: 100nM, compared to cells grown in presence of DMSO as a vehicle
Excerpt: In the direct reporter gene assay, HEK293 cells, obtained from DSMZ (German Collection of Microorganisms and Cell Cultures, Braunschweig, Germany) were stably transfected with pTRexDest30 (Invitrogen) derivative pTRexDest30-hFXR and pGL2promoter (Promega) derivative pGL2promoter-2xIBABP-RE. The full length human FXR (NM_005123) was cloned into pTRexDest30 according to the manufacturer protocol for the Gateway system (Invitrogen). The FXR response elements cccaGGGTGAaTAACCTcggggctctgtccctccaatcccaGGGTGAaTAACCTcggg were derived from the human IBABP-P promoter (Grober et al. 1999, JBC, 174, pp.29749-29754) and cloned into pGL2promoter. […] For the direct reporter gene assays, D2IV3 cells were grown in MEM with L-Glutamine and Earle's BSS supplemented with 10% fetal bovine serum, 0.1mM nonessential amino acids, 1mM sodium pyruvate, and 100units Penicilin/[…] per ml at 37°C in 5% CO2. Medium and supplements were obtained from Invitrogen. For the assay, 5x10^5 cells were plated per well in 96well plates in 100µl per well minimum essential medium (same composition as above) incubated at 37°C in 5% CO2. The following day the cells were >90% confluence. […] Cells were incubated for additional 16 hours before firefly luciferase activity was measured. […]

## CC(C)c1onc(-c2c(Cl)cccc2Cl)c1COc1ccc(/C=C/c2cccc(C(=O)O)c2)c(Cl)c1 [GW4064, reference compound]
  induction of luciferase activity: 8 fold
